# Measured values published in PMC2645950 (Journal of medicinal chemistry, 2008).
# Biological target: T1, human alkyltransferase (wild type) (Homo sapiens, UniProt P16455)
# T1 sequence (P16455 1-207): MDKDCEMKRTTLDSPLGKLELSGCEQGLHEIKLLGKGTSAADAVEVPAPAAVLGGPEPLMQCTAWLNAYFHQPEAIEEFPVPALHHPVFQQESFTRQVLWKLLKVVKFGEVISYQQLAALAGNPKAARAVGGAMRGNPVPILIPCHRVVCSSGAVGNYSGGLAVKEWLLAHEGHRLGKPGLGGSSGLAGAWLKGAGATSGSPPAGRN
# Experiment: Inactivation of purified recombinant human alkyltransferase in vitro
# Assay type: biochemical
# Conditions: assayed in the presence of DNA
compound,measurement,value
"Nc1nc(OCc2ccccc2)c2nc[nH]c2n1 [BG, O^6-Benzylguanine]",ED50,0.1 µM
